ChEMBL document CHEMBL4428027, “3-Hydroxypyrimidine-2,4-diones as Selective Active Site Inhibitors of HIV Reverse Transcriptase-Associated RNase H: Design, Synthesis, and Biochemical Evaluations” (J Med Chem, 2016)
Calls of active or inactive are those of the source. The calls are words filed in the database; no cut-off is given here.

Experiments:
[1] = molecular target: Human immunodeficiency virus type 1 reverse transcriptase (Human immunodeficiency virus 1) (UniProt Q72547); assay: Inhibition of HIV1 polymerase activity of reverse transcriptase using poly(rA)-oligo(dT)16 and [3H]-TTP up to 25 uM incubated for 20 mins by liquid scintillation spectrometry
Procedure, shortened: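 Reaction mix: 10 µM [3H]-TTP, 40 nM poly(rA)-oligo(dT)16, 50 mM Tris-HCl pH 7.4 (37°C), 60 mM KCl, 5 mM MgCl2. Started with 10 nM RT; 20 min at 37°C. Quenched in ice-cold 10% TCA with 20 mM sodium pyrophosphate, then glass-fibre filtered and washed with TCA and ethanol. Label incorporation read by liquid scintillation.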

[2] = molecular target: Human immunodeficiency virus type 1 reverse transcriptase (Human immunodeficiency virus 1) (UniProt Q72547); assay: Inhibition of RNase H activity of full length recombinant HIV1 reverse transcriptase assessed as reduction in RNA 5'-end directed cleavage up to 25 uM using HTS3 substrate
[3] = molecular target: Human immunodeficiency virus type 1 reverse transcriptase (Human immunodeficiency virus 1) (UniProt Q72547); assay: Inhibition of re-constituted HIV1 reverse transcriptase RNase H domain fragment up to 25 uM
Procedure, shortened: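 Secondary check using a catalytically active, isolated HIV RNase H domain fragment (reconstituted) with duplex substrate HTS-1. […] Upper test concentration 25 µM.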

Row | Structure (SMILES) | inhibition [1] | inhibition [2] | inhibition [3]
1 | Cn1c(Oc2cccc(-c3cccc(C#N)c3)c2)cc(=O)n(O)c1=O | inactive |  | 
2 | COc1cccc(-c2ccc(Nc3cc(=O)n(O)c(=O)n3C)cc2)c1 | inactive |  | 
3 | Cn1c(Nc2ccc(-c3ccccc3)cc2)cc(=O)n(O)c1=O | inactive |  | 
4 | COc1ccc(-c2ccccc2Oc2cc(=O)n(O)c(=O)n2C)cc1 | inactive |  | 
5 | COc1ccccc1-c1ccc(Oc2cc(=O)n(O)c(=O)n2C)cc1 | inactive |  | 
6 | Cn1c(Nc2ccc(-c3ccc(C(F)(F)F)cc3)cc2)cc(=O)n(O)c1=O | inactive |  | 
7 | COc1ccccc1-c1ccccc1Oc1cc(=O)n(O)c(=O)n1C | inactive | inactive | 
8 | COc1ccccc1-c1ccc(Nc2cc(=O)n(O)c(=O)n2C)cc1 | inactive |  | 
9 | COc1ccc(-c2ccc(Oc3cc(=O)n(O)c(=O)n3C)cc2)cc1 | inactive |  | 
10 | COc1cccc(-c2cccc(Nc3cc(=O)n(O)c(=O)n3C)c2)c1 | inactive |  | 
11 | COc1cc(OC)cc(-c2cccc(Nc3cc(=O)n(O)c(=O)n3C)c2)c1 | inactive |  | 
12 | Cn1c(Oc2ccccc2-c2ccc(C(F)(F)F)cc2)cc(=O)n(O)c1=O | inactive |  | 
13 | Cn1c(Oc2ccc(-c3ccc(C#N)cc3)cc2)cc(=O)n(O)c1=O | inactive |  | 
14 | Cc1ccc(-c2ccc(Nc3cc(=O)n(O)c(=O)n3C)cc2)cc1 | inactive |  | 
15 | COc1ccccc1-c1cccc(Oc2cc(=O)n(O)c(=O)n2C)c1 | inactive |  | 
16 | Cc1noc(C)c1-c1ccc(Nc2cc(=O)n(O)c(=O)n2C)cc1 | inactive |  | 
17 | COc1cccc(OC)c1-c1cccc(Nc2cc(=O)n(O)c(=O)n2C)c1 | inactive |  | 
18 | Cn1c(Oc2cccc(-c3cccc(O)c3)c2)cc(=O)n(O)c1=O | inactive |  | 
19 | Cn1c(Oc2ccc(-c3ccccc3)cc2)cc(=O)n(O)c1=O | inactive |  | 

Row | Structure (SMILES) | inhibition [1] | inhibition [2] | inhibition [3]
20 | Cn1c(Oc2ccc(-c3ccc(O)cc3)cc2)cc(=O)n(O)c1=O | inactive |  | 
21 | Cn1c(Nc2ccc(-c3cccc(C#N)c3)cc2)cc(=O)n(O)c1=O | inactive |  | 
22 | COc1ccc(-c2ccc(Nc3cc(=O)n(O)c(=O)n3C)cc2)c(OC)c1 | inactive |  | 
23 | Cn1c(Oc2ccc(-c3cccc(C#N)c3)cc2)cc(=O)n(O)c1=O | inactive |  | 
24 | Cn1c(Nc2cccc(-c3ccccc3)c2)cc(=O)n(O)c1=O | inactive |  | 
25 | Cn1c(Oc2cccc(-c3ccc(C(F)(F)F)cc3)c2)cc(=O)n(O)c1=O | inactive | inactive | inactive
26 | Cc1noc(C)c1-c1ccccc1Nc1cc(=O)n(O)c(=O)n1C | inactive | inactive | 
27 | COc1ccc(-c2ccc(Nc3cc(=O)n(O)c(=O)n3C)cc2)cc1 | inactive |  | 
28 | COc1cccc(-c2ccccc2Oc2cc(=O)n(O)c(=O)n2C)c1 | inactive | inactive | 
29 | Cn1c(Oc2ccc(-c3ccncc3)cc2)cc(=O)n(O)c1=O | inactive |  | 
30 | Cn1c(Oc2cccc(-c3ccccc3)c2)cc(=O)n(O)c1=O | inactive |  | 
31 | Cn1c(Nc2cccc(-c3cncnc3)c2)cc(=O)n(O)c1=O | inactive |  | 
32 | Cn1c(Oc2ccccc2-c2ccccc2O)cc(=O)n(O)c1=O | inactive | inactive | 
33 | Cn1c(Oc2ccc(-c3ccc(Cl)cc3)cc2)cc(=O)n(O)c1=O | inactive |  | 
34 | Cn1c(Oc2ccc(-c3ccc(C(F)(F)F)cc3)cc2)cc(=O)n(O)c1=O | inactive | inactive | 
35 | COc1cccc(-c2cccc(Oc3cc(=O)n(O)c(=O)n3C)c2)c1 | inactive |  | 
36 | COc1ccc(-c2cccc(Oc3cc(=O)n(O)c(=O)n3C)c2)cc1 | inactive |  | 
37 | Cn1c(Oc2cccc(-c3ccc(C#N)cc3)c2)cc(=O)n(O)c1=O | inactive |  | 
